Assay results from patent EP4745135A1 (Gluetacs Therapeutics (Shanghai) Co., Ltd., priority 2023, dated 2025).

What was measured:
Experiment in all cases: Tumor cell proliferation inhibition (CellTiter-Meiluncell luminescent cell viability assay)
[1] = tested on: Human multiple myeloma cell (MM.1S); conditions: MM1.S, 96 h, read-out: Inhibitory activity (IC50, nM) on tumor cell proliferation, MM.1S
[2] = tested on: Human multiple myeloma peripheral blood B lymphocyte cell (RPMI-8226); conditions: RPMI-8226, 96 h
[3] = tested on: Human breast cancer cell (MCF-7); conditions: MCF7, 96 h
[4] = tested on: Human T lymphocytic leukemia cell line: Jurkat; conditions: 96 h, read-out: Inhibitory activity (IC50, nM) on tumor cell proliferation, Jurkat
[5] = tested on: Human non-small cell lung cancer cell line: NCI-H1975; conditions: NCI-H1975, 96 h, read-out: Inhibitory activity (IC50, nM) on tumor cell proliferation, H1975
[6] = tested on: Human mantle cell lymphoma cell line: JEKO-1; conditions: JeKo-1, 96 h, read-out: Inhibitory activity (IC50, nM) on tumor cell proliferation, JEKO-1
[7] = tested on: Human gastric cancer cell line: MGC803; conditions: MGC-803, read-out: Inhibitory activity (IC50, nM) on tumor cell proliferation, MGC803
[8] = tested on: Human diffuse large B-cell lymphoma cell line: TMD8; conditions: TMD8, 96 h, read-out: Inhibitory activity (IC50, nM) on tumor cell proliferation, TMD8

Molecule `Nc1cccc2c1CN(C1CCC(=O)NC1=O)C2=O` (stereo not shown) [lenalidomide, reference compound] has an IC50 [1] greater than 10000 nM, an inhibition at 0.01 µM ([2]; read-out: Inhibition Rate at 10 nM (%)) of 5 to 10% and an IC50 ([2]; read-out: Inhibitory activity (IC50, nM) on tumor cell proliferation, RPMI-8226) greater than 10000 nM. For the same molecule, the inhibition at 0.5 µM ([3]; read-out: Inhibition Rate at 500 nM (%)) was 5 to 10%, the IC50 ([3]; read-out: Inhibitory activity (IC50, nM) on tumor cell proliferation, MCF7) was greater than 10000 nM and the IC50 [4] was greater than 10000 nM. For the same molecule, the IC50 [5] was greater than 10000 nM, the IC50 [6] was greater than 10000 nM and the IC50 [7] was greater than 10000 nM. For the same molecule, the IC50 [8] was greater than 10000 nM.
